High-throughput results deposited in PubChem BioAssay by ICCB-Longwood Screening Facility, Harvard Medical School.
HCMV NEC inh: inhibitors of HCMV UL50-UL53 interaction, biochemical, HTRF; HCMV UL50-UL53 nuclear egress complex (human cytomegalovirus); normalized percent inhibition; inhibition, % (concentration not given with the values); hit rate 0.15% among 190,000; in the data active = inhibition above about 27%, passing the limit was not always enough
GIV Gai3 FP: inhibitors of GIV GBA-motif binding to rat Galpha-i3; P08753; Galpha-i3/FITC-GIV peptide fluorescence polarization, 90 min; stronger effect = lower value; scaled: aluminum fluoride 0%, vehicle 100%; percent of control (FP), % (test concentration not listed); 210,000 tested, 0.42% active; AID 1224905;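 active = replicate mean at 85% of control or lower, very high polarization wells dropped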;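 note: wells of about 15 µL received 100 nL stock; the first replicate is given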
GIV Gai FP conf: inhibitors of GIV peptide binding to Galpha-i3, confirmation, biochemical, fluorescence polarization, FITC-GIV peptide, rat Galphai3; shares compounds with GIV Gai3 FP; active compounds read low; fluorescence polarization, mP at 100 µM; hit rate 38% among 580;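 active = inhibition score of 15 or more, meaning 100 minus mean polarization as percent of control over three replicates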;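 also: lower mP means peptide displaced from Galphai3 so more inhibition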
GIV Gai AS conf: inhibitors of GIV binding to Galpha-i3, confirmation, orthogonal assay for GIV-Galpha-i inhibitor project, biochemical, AlphaScreen, His-GIV, GST-Galphai3; shares compounds with GIV Gai3 FP; purified proteins, 90 min; active compounds read low; AlphaScreen counts at 100 µM; hit rate 39% among 580; AID 1259351, 2017;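 active = inhibition score at or above a set limit, where the score is 100 minus the three-replicate mean percent of control signal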
* = called active by the depositor. Shown is part of a subset that was picked to be rich in hits.

How did Cc1nn(-c2ccccc2)c2sc(C(=O)N/N=C/c3ccccc3)cc12 do in these assays?
HCMV NEC inh: 1; GIV Gai3 FP: 105

Results for N#CCSc1nc2c(sc(=S)n2CCc2ccccc2)c(=O)n1Cc1ccco1 ?
GIV Gai3 FP: 119

Results for CCN1C(=O)c2cccc3c(NC(=O)c4ccc(S(=O)(=O)N5CCCC5)cc4)ccc1c23 ?
GIV Gai3 FP: 89; GIV Gai FP conf: 79; GIV Gai AS conf: 47241

Results for CCN1C(=O)c2cccc3c(NC(=S)NC(=O)c4ccc(S(=O)(=O)N5CCCC5)cc4)ccc1c23 ?
GIV Gai3 FP: 107

What do the screens show for `O=C(NCCc1ccc(Cl)cc1)c1ccc(-n2nnc3cccnc32)cc1`?
HCMV NEC inh: -3; GIV Gai3 FP: 114

Results for CC(C)(C)c1ccc(-c2cc(=O)c3cc(NC(=O)c4cccnc4)ccc3o2)cc1 ?
HCMV NEC inh: -22; GIV Gai3 FP: 100

What do the screens show for `COc1ccc(N(/N=C2\Sc3ccccc3C2=O)C(C)=O)cc1`?
HCMV NEC inh: -3; GIV Gai3 FP: 110

Results for CC(=O)O/N=C1\Sc2ccccc2C1=O ?
HCMV NEC inh: 19; GIV Gai3 FP: 68*; GIV Gai FP conf: 66; GIV Gai AS conf: 29965*

Results for CC1(C)OC(=O)C(=Cc2ccc(-c3ccc(S(N)(=O)=O)cc3)o2)C(=O)O1 ?
HCMV NEC inh: -42; GIV Gai3 FP: 87; GIV Gai FP conf: 67; GIV Gai AS conf: 4423*

What do the screens show for `CN1C(=O)/C(=C\c2ccc(-c3ccc(S(N)(=O)=O)cc3)o2)c2ccccc21`?
HCMV NEC inh: -34

How did CCOC(=O)C1=C(C)NC2=C(C(=O)c3ccccc32)C1c1ccccc1OCc1ccccc1F (configuration not stated) do in these assays?
GIV Gai3 FP: 113

Results for CCOC(=O)c1[nH]c2sc(C)c(C)c2c1N ?
HCMV NEC inh: -14; GIV Gai3 FP: 83*; GIV Gai FP conf: 73; GIV Gai AS conf: 8984*

What do the screens show for `COC(=O)c1c(N)sc2c1CCCC2`?
HCMV NEC inh: -8; GIV Gai3 FP: 107

What do the screens show for `COC(=O)c1[nH]c2sc3c(c2c1N)CCCC3`?
HCMV NEC inh: -2; GIV Gai3 FP: 20*; GIV Gai FP conf: 39*; GIV Gai AS conf: 8300*

Results for CCOC(=O)c1c(N)sc(C)c1C ?
HCMV NEC inh: -13

How did COC(=O)NC(C(=O)N1CCCC1c1ncc(-c2ccc(-c3ccc(-c4cnc(C5CCCN5C(=O)C(NC(=O)OC)C(C)C)[nH]4)cc3)cc2)[nH]1)C(C)C (configuration not stated) do in these assays?
HCMV NEC inh: -66

Results for COC(=O)c1ccc(NC(=O)c2nn(C)c3c2CS(=O)(=O)c2ccccc2-3)cc1 ?
HCMV NEC inh: -16; GIV Gai3 FP: 86; GIV Gai FP conf: 83; GIV Gai AS conf: 37898

Results for Cn1nc(C(=O)Nc2ccc(F)cc2)c2c1-c1ccccc1S(=O)(=O)C2 ?
HCMV NEC inh: 0; GIV Gai3 FP: 104

How did CC(C)(C)c1ccc(OCCOc2ccccc2C=C2C(=O)NC(=S)NC2=O)cc1 do in these assays?
HCMV NEC inh: -20; GIV Gai3 FP: 95

What do the screens show for `O=C1NC(=S)NC(=O)C1=Cc1cccc(O)c1Cl`?
HCMV NEC inh: -11; GIV Gai3 FP: 77*; GIV Gai FP conf: 69; GIV Gai AS conf: 4117*

How did COc1ccc(N(C(=O)c2ccccc2)S(=O)(=O)c2cccc3cccnc23)cc1 do in these assays?
GIV Gai3 FP: 105

How did Cc1ccc(Cl)cc1NC(=O)c1c(O)c2ccccc2[nH]c1=O do in these assays?
HCMV NEC inh: -22; GIV Gai3 FP: 109

How did CCC(C)C(=O)N1c2cc(C)c(C)cc2-c2c(ssc2=S)C1(C)C (configuration not stated) do in these assays?
GIV Gai3 FP: 106

Results for Cc1cc2c(cc1C)N(C(=O)C(C)C)C(C)(C)c1ssc(=S)c1-2 ?
GIV Gai3 FP: 93; GIV Gai FP conf: 68; GIV Gai AS conf: 45573

What do the screens show for `Cc1ccc(Cl)cc1Nc1nncc(=O)[nH]1`?
HCMV NEC inh: 6; GIV Gai3 FP: 104

How did COc1ccc(C2=CC(=O)N(c3ccccc3)C(c3ccccc3)O2)cc1 (configuration not stated) do in these assays?
GIV Gai3 FP: 90; GIV Gai FP conf: 65; GIV Gai AS conf: 40592

Results for COc1ccc(C2N(c3ccccc3)OC(=O)N2c2ccccc2)cc1 (configuration not stated) ?
GIV Gai3 FP: 103

How did Cc1ccc2nc(S/C=C/C(=O)c3ccccc3)[nH]c2c1 do in these assays?
HCMV NEC inh: -11; GIV Gai3 FP: 89; GIV Gai FP conf: 62; GIV Gai AS conf: 38936

How did O=C(/C=C/Sc1nc2cc(Cl)c(F)cc2[nH]1)c1ccccc1 do in these assays?
HCMV NEC inh: -21; GIV Gai3 FP: 104

What do the screens show for `CC1CCCC(C)N1Cc1ccc(N)cc1` (configuration not stated)?
HCMV NEC inh: -8

Results for N#CC(C#N)C1CCS(=O)(=O)C1 (configuration not stated) ?
HCMV NEC inh: 20

Results for Cc1nc(-c2cnccn2)nc2c1CC(=O)N2CC1CCCO1 (configuration not stated) ?
GIV Gai3 FP: 141

What do the screens show for `CCN(CCN(C)C)c1ncc(NS(=O)(=O)CC)cc1C(=O)O`?
HCMV NEC inh: -24; GIV Gai3 FP: 71*; GIV Gai FP conf: 34*; GIV Gai AS conf: 21018*

What do the screens show for `CCCCN(CC)c1ncc(NS(=O)(=O)CC)cc1C(=O)O`?
HCMV NEC inh: -39; GIV Gai3 FP: 110

How did O=S1(=O)N=C(Nc2ccccc2)c2ccccc21 do in these assays?
HCMV NEC inh: -22

Results for N#Cc1ccc(NC2=NS(=O)(=O)c3ccccc32)cc1 ?
HCMV NEC inh: -2; GIV Gai3 FP: 92; GIV Gai FP conf: 77; GIV Gai AS conf: 35009

Results for CC(=Nc1ccccc1O)c1sc2ccccc2c1O ?
HCMV NEC inh: -59; GIV Gai3 FP: 127

What do the screens show for `CC(=Nc1ccccc1Br)c1sc2ccccc2c1O`?
HCMV NEC inh: -23; GIV Gai3 FP: 72*; GIV Gai FP conf: 62; GIV Gai AS conf: 63874

Results for O=c1c2cccc3cccc(c32)c2nc3ccc4ccccc4c3n12 ?
GIV Gai3 FP: 112

What do the screens show for `Nc1nnn2c(=O)c3cccc4cccc(c43)c12`?
HCMV NEC inh: -108; GIV Gai3 FP: 88; GIV Gai FP conf: 79; GIV Gai AS conf: 19934*

Results for CCOC(=O)c1c(C)oc2cc(Br)c(OCc3ccc(Cl)cc3)cc12 ?
HCMV NEC inh: -22; GIV Gai3 FP: 101

Results for O=C(O)c1ccccc1C(=O)c1ccccc1 ?
HCMV NEC inh: 2

What do the screens show for `O=C(c1ccccc1)c1cccc2c1NCC2`?
HCMV NEC inh: -11; GIV Gai3 FP: 81*; GIV Gai FP conf: 65; GIV Gai AS conf: 29262

What do the screens show for `O=C(O)c1ccc(CNS(=O)(=O)c2cccc3nsnc23)cc1`?
GIV Gai3 FP: 105

Five compounds from above, arranged by molar mass, highest first.
How did COc1ccc(N(C(=O)c2ccccc2)S(=O)(=O)c2cccc3cccnc23)cc1 do in these assays?
GIV Gai3 FP: 105

Results for Cn1nc(C(=O)Nc2ccc(F)cc2)c2c1-c1ccccc1S(=O)(=O)C2 ?
HCMV NEC inh: 0; GIV Gai3 FP: 104

What do the screens show for `CC(=Nc1ccccc1Br)c1sc2ccccc2c1O`?
HCMV NEC inh: -23; GIV Gai3 FP: 72*; GIV Gai FP conf: 62; GIV Gai AS conf: 63874

Results for N#Cc1ccc(NC2=NS(=O)(=O)c3ccccc32)cc1 ?
HCMV NEC inh: -2; GIV Gai3 FP: 92; GIV Gai FP conf: 77; GIV Gai AS conf: 35009

What do the screens show for `CC1CCCC(C)N1Cc1ccc(N)cc1` (configuration not stated)?
HCMV NEC inh: -8
